Results: patent US9505834B2, “Methods for controlling the galactosylation profile of recombinantly-expressed proteins” (AbbVie Inc., priority 2011, dated 2016)

Columns and labels:
[1] = test system: CHO cell line producing mAb #1; test: Example 7 culture growth & productivity; conditions: 40 μM manganese chloride and galactose at all levels studied
Description: (§1) For all studies with CHO cell lines described throughout this invention, samples were collected daily and measured for cell density and viability using a Cedex cell counter. Retention samples for titer analysis via Poros A method were collected by centrifugation at 12,000 RPM for 5 min when the culture viability began declining. The cultures were harvested by collecting 125 mL aliquots and centrifuging at 3,000 RPM for 30 min when culture viability was near or below 50%. All supernatants were stored at −80° C. until analysis.
Growth and production media for the CHO cell line producing mAb #1 were prepared using a proprietary Life Technologies Gibco chemically defined media, GIA-1. […] All media were filtered through Corning 0.5 L or 1 L filter systems (0.22 μm PES) and stored at 4° C. until use.
Upon thaw, cells were expanded for 6 (3 day each) passages in a combination of 250 mL, 500 mL, and 1000 mL Corning vented non-baffled shake flasks. Production cultures were initiated in duplicate 500 mL Corning vented non-baffled shake flasks (200 mL working volume) at an initial VCD of approximately 0.5×10^6 cells/mL. Cultures were maintained on orbital shakers at 125 RPM in a dry incubator at 35° C. and 5% CO2. A glucose solution (1.25% (v/v) of 40% solution) was fed when the media glucose concentration fell below 3 g/L. […]

[2] = test system: adalimumab-producing CHO cell line; test: Example 2 culture growth & productivity, HyClone CDM4CHO; conditions: manganese chloride 20 μM or 40 μM
Description: as §1
Growth and production media for the adalimumab-producing CHO cell line were prepared using Thermo Scientific HyClone chemically defined media CDM4CHO without L-glutamine (Catalogue #SH30558.02). […] All media were filtered through Corning 0.5 L or 1 L (0.22 μm PES) filter systems and stored at 4° C. until use.
Upon thaw, cells were adapted to and expanded in HyClone CDM4CHO media for 5 (2 to 3 day each) passages in a combination of 250 mL, 500 mL, and 1000 mL Corning vented non-baffled shake flasks. Production cultures were initiated in duplicate 500 mL Corning vented non-baffled shake flasks (200 mL working volume) at an initial VCD of approximately 0.5×10^6 cells/mL. Cultures were maintained on orbital shakers at 110 RPM in a dry incubator at 35° C. and 5% CO2. […]

[3] = test system: adalimumab-producing CHO cell line; conditions: some cultures with 20 μM or 40 μM manganese chloride
Description: as §1
All media were filtered through Corning 0.5 L or 1 L filter systems (0.22 μm PES) and stored at 4° C. until use.
Production cultures were initiated in duplicate 500 mL Corning vented non-baffled shake flasks (200 mL working volume) at an initial VCD of approximately 0.5×10^6 cells/mL. Cultures were maintained on orbital shakers at 110 RPM in a dry incubator at 35° C. and 5% CO2. A glucose solution (1.25% (v/v) of 40% solution) was fed when the media glucose concentration fell below 3 g/L.

[4] = test system: adalimumab-producing CHO cell line; test: Example 1 culture growth & productivity, batch shake flasks; format: cell-based, Chinese Hamster; conditions: production IVGN CDM GIA-1
Description: All supernatants were stored at −80° C. until analysis. […] Culture growth, productivity, and product quality data for control cultures is the average of the 3 experiments.

## Manganese (II) Chloride [manganese chloride]
[1]
  culture growth: slower growth and decreased peak VCD compared to the control
[2]
  culture growth: slowed down culture growth
[3]
  viability: decreased viability by day 3 of production culture, but recovered
[4]
  manganese concentration at which growth inhibition was observed: about 100 μM
